Laboratory results: US20260384450A1, “MACROCYCLIC AMINOPYRIDINE COMPOUNDS AS EGFR INHIBITORS” (published 2026)

Chains of the proteins cited; added tags and fusions are not shown. Lines headed by an entry give the natural chain unless they say otherwise; changes in a name come on top. A line that says so, or that is headed by a name, gives the form on record, which may keep a tag or linker. Residues count along the entry.
UniProt P00533, 25-1210 limits assumed: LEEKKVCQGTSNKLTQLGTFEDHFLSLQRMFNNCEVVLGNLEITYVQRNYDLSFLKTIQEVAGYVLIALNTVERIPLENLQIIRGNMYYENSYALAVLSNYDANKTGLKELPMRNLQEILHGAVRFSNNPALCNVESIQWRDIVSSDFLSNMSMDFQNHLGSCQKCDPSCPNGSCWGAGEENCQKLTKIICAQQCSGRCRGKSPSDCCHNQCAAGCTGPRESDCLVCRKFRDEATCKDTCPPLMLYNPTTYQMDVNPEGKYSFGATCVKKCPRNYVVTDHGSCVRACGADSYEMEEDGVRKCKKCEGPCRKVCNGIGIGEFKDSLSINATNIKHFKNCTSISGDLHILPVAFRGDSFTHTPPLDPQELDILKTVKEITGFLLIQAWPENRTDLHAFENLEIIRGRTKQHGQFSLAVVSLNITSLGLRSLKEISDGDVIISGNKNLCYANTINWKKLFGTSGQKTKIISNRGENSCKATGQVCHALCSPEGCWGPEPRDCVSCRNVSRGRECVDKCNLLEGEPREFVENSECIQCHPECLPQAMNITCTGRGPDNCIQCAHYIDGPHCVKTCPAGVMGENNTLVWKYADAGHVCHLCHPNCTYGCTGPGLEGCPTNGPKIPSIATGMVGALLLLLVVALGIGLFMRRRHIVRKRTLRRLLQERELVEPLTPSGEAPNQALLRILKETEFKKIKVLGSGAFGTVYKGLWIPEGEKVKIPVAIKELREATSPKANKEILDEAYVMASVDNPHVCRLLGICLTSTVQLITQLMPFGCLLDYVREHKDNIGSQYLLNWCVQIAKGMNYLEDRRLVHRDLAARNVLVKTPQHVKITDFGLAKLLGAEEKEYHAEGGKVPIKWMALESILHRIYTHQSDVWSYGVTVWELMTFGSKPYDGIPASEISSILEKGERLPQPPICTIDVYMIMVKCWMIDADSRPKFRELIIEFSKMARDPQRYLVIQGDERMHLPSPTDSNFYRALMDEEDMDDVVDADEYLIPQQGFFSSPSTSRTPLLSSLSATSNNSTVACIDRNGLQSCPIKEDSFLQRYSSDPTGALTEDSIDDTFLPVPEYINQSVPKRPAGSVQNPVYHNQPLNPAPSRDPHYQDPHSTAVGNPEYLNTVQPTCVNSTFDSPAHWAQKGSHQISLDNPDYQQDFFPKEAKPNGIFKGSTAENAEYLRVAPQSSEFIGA
UniProt P00533, 25-1210 C797S/L858R limits assumed: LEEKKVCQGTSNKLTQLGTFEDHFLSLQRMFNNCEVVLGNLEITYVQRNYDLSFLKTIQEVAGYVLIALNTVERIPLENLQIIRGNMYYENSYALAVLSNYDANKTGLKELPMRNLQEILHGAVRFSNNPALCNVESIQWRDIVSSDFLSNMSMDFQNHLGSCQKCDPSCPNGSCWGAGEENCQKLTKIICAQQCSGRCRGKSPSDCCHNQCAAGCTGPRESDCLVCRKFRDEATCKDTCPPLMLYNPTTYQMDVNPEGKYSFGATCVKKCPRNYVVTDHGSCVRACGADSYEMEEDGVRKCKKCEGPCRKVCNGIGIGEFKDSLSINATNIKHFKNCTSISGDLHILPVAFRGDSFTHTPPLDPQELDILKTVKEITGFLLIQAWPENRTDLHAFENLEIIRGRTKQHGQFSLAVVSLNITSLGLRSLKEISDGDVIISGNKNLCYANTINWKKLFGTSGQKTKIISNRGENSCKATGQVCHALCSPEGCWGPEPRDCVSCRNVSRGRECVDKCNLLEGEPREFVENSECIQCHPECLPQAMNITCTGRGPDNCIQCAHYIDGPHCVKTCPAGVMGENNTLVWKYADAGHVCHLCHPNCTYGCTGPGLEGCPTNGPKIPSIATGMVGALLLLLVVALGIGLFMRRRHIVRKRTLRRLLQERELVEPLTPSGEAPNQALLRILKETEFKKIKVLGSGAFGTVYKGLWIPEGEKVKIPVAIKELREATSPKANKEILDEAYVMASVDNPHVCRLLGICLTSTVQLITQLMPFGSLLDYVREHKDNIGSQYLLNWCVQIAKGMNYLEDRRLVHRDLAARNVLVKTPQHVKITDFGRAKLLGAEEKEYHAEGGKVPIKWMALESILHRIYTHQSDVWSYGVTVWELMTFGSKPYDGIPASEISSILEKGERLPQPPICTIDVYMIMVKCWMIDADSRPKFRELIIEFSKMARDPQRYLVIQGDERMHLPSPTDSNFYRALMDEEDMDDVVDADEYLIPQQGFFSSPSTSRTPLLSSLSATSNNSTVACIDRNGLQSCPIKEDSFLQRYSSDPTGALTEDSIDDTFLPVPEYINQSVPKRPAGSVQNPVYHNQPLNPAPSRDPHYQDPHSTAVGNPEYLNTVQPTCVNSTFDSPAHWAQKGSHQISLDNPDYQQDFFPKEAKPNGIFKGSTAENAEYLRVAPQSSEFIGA
UniProt P00533, 25-1210 T790M/C797S/L858R limits assumed: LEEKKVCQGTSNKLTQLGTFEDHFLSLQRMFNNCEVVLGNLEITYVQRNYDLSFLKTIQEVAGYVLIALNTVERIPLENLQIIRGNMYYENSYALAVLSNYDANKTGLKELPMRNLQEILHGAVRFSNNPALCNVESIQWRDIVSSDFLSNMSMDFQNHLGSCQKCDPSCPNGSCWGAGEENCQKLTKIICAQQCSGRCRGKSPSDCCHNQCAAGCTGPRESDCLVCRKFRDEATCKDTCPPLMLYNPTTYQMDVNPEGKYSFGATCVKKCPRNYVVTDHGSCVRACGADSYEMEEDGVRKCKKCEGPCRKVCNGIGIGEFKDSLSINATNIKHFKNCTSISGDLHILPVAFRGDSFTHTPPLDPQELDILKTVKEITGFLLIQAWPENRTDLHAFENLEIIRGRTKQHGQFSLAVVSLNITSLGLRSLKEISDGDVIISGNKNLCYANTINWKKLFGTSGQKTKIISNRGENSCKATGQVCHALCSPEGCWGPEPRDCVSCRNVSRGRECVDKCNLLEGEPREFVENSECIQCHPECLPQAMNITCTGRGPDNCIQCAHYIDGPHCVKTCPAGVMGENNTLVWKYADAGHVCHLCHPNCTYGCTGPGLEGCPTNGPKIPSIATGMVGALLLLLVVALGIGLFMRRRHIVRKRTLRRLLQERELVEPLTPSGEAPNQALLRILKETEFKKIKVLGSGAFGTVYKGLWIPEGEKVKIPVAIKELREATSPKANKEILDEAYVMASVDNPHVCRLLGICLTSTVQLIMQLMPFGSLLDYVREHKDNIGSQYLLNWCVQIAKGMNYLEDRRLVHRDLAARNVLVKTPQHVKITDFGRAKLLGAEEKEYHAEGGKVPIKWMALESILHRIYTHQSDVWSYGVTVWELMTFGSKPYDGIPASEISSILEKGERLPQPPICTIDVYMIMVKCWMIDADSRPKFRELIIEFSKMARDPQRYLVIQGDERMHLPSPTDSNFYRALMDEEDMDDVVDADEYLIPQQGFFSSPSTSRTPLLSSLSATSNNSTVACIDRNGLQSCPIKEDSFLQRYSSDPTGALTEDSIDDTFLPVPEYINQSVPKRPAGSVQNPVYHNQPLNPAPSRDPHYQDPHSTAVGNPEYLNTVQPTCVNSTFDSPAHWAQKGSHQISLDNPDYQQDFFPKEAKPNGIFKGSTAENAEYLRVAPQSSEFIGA
UniProt P00533, with tags, fused parts or gaps DEL746-750/C797S limits assumed: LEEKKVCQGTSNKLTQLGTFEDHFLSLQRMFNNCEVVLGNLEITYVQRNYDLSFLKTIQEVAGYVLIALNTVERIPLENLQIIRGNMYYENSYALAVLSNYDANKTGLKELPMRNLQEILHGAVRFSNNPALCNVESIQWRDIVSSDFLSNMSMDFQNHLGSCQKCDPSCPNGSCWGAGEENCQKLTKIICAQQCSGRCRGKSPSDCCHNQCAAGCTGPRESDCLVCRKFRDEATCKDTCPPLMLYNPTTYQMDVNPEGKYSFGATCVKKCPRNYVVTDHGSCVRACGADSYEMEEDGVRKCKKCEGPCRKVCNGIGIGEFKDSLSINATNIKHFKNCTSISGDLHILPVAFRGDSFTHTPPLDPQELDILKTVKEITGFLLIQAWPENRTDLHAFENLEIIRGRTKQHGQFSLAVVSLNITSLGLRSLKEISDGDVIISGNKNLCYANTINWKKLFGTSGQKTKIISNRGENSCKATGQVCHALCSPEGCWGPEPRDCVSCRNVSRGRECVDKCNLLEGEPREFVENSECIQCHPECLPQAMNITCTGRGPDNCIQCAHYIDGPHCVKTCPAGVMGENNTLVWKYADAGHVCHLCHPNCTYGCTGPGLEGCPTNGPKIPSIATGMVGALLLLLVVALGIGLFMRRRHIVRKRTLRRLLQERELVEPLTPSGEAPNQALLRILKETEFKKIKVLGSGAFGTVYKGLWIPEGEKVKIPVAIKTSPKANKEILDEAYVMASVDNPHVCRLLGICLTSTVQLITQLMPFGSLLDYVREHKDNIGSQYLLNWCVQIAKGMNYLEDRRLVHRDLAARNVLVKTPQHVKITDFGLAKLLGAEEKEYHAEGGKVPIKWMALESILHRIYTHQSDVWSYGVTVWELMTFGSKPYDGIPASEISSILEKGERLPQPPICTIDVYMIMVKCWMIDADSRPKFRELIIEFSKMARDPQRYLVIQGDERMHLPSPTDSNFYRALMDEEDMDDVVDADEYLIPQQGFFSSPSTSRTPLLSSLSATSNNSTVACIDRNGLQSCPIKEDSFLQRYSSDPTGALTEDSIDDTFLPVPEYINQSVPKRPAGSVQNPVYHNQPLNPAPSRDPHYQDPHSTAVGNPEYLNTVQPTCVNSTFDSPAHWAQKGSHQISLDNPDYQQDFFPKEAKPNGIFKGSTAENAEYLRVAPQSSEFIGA
UniProt P00533, with tags, fused parts or gaps DEL746-750/T790M/C797S limits assumed: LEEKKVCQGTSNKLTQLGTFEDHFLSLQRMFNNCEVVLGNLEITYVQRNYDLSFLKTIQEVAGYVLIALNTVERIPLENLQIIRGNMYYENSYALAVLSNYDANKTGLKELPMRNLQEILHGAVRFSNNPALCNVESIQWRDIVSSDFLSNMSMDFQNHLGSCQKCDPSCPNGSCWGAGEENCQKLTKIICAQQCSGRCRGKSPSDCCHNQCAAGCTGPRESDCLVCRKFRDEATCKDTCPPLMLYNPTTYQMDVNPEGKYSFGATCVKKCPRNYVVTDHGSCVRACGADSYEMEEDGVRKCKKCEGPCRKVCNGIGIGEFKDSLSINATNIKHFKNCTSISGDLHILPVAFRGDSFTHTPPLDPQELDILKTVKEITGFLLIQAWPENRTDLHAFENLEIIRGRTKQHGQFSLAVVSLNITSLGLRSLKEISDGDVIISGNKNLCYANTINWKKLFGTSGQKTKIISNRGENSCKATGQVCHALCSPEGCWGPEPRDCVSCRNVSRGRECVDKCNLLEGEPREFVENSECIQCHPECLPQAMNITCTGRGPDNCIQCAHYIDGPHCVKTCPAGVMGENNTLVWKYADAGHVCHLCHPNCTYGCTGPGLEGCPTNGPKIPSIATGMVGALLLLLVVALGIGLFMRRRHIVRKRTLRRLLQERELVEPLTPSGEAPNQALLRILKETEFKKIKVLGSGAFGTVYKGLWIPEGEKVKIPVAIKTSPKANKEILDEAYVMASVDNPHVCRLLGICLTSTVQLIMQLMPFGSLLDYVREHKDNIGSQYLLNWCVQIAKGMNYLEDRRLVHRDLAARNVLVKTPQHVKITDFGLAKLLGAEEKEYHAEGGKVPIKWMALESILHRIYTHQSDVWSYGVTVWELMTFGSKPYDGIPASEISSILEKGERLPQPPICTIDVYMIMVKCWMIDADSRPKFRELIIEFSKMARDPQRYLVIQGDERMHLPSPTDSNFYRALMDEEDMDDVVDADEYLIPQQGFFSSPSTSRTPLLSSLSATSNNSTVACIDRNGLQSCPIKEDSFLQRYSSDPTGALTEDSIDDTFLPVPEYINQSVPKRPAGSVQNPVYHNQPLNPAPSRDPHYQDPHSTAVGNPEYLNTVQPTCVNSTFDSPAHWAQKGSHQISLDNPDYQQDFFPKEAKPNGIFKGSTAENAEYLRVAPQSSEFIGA

What was measured:
[1] = target: EGFR D19TMCS (del19/T790M/C797S) (Homo sapiens, UniProt P00533, C797S/DEL746-750/T790M); assay: Biochemical EGFR kinase assay (Lance Ultra TR-FRET), triple mutant del19/T790M/C797S
[2] = target: EGFR LRTMCS (L858R/T790M/C797S) (Homo sapiens, UniProt P00533, C797S/L858R/T790M); assay: Biochemical EGFR kinase assay (Lance Ultra TR-FRET), triple mutant L858R/T790M/C797S
EGFR LRCS (L858R/C797S) = EGFR LRCS (L858R/C797S) (Homo sapiens, UniProt P00533, C797S/L858R); assay: Biochemical EGFR kinase assay (Lance Ultra TR-FRET), double mutant L858R/C797S
EGFR WT = EGFR WT (Homo sapiens, UniProt P00533); assay: Biochemical EGFR kinase assay (Lance Ultra TR-FRET), wildtype
EGFR D19CS (del19/C797S) = EGFR D19CS (del19/C797S) (Homo sapiens, UniProt P00533, C797S/DEL746-750); assay: Biochemical EGFR kinase assay (Lance Ultra TR-FRET), double mutant del19/C797S
[3] = read-out: EGFR D19TMCS IC50, ATP 1 mM
[4] = read-out: EGFR D19TMCS IC50, ATP Km
[5] = read-out: EGFR LRTMCS IC50, ATP 1 mM
[6] = read-out: EGFR LRTMCS IC50, ATP Km
[7] = read-out: EGFR LRCS IC50, ATP 1 mM
[8] = read-out: EGFR LRCS IC50, ATP Km
[9] = read-out: EGFR WT IC50, ATP 1 mM
[10] = read-out: EGFR D19CS IC50, ATP 1 mM
[11] = read-out: EGFR D19CS IC50, ATP Km
[12] = read-out: IC50, EGFR D19TMCS, Km, ATP at Km, EGFR del19/T790M/C797S
[13] = read-out: IC50, EGFR LRTMCS, 1 mM, ATP 1 mM, EGFR L858R/T790M/C797S
[14] = read-out: IC50, EGFR LRTMCS, Km, ATP at Km, EGFR L858R/T790M/C797S
[15] = read-out: IC50, EGFR-LRCS, 1 mM, ATP 1 mM, EGFR L858R/C797S
[16] = read-out: IC50, EGFR-LRCS, Km, ATP at Km, EGFR L858R/C797S
[17] = read-out: IC50, EGFR WT, 1 mM, ATP 1 mM, EGFR wildtype
[18] = read-out: IC50, EGFR WT, Km, ATP at Km, EGFR wildtype
[19] = read-out: IC50, EGFR-D19CS, 1 mM, ATP 1 mM, EGFR del19/C797S
[20] = read-out: IC50, EGFR-D19CS, Km, ATP at Km, EGFR del19/C797S

SMILES | pIC50 [1, 3] | pIC50 [1, 4] | pIC50 [2, 5] | pIC50 [2, 6] | pIC50 (EGFR LRCS (L858R/C797S); [7]) | pIC50 (EGFR LRCS (L858R/C797S); [8]) | pIC50 (EGFR WT; [9]) | pIC50 (EGFR WT; read-out: EGFR WT IC50, ATP Km) | pIC50 (EGFR D19CS (del19/C797S); [10]) | pIC50 (EGFR D19CS (del19/C797S); [11]) | pIC50 [1, 12] | pIC50 [2, 13] | pIC50 [2, 14] | pIC50 (EGFR LRCS (L858R/C797S); [15]) | pIC50 (EGFR LRCS (L858R/C797S); [16]) | pIC50 (EGFR WT; [17]) | pIC50 (EGFR WT; [18]) | pIC50 (EGFR D19CS (del19/C797S); [19]) | pIC50 (EGFR D19CS (del19/C797S); [20])
Cc1nn(C)c2c1-c1nccc(n1)Nc1cc(c(-c3ncc(CN4C[C@@H](CS(C)(=O)=O)[C@@H]4C)cc3F)cn1)N[C@@H](C)CCO2 |  |  |  |  |  |  |  |  |  |  | > 8.00 | > 8.00 | > 8.00 | 7.00 to 8.00 | > 8.00 | < 6.00 | 7.00 to 8.00 | 7.00 to 8.00 | 7.00 to 8.00
C[C@H]1CCOc2c(cnn2C)-c2nccc(n2)Nc2cc(c(-c3cc(N4CC(CC(F)F)C4)ccn3)cn2)N1 | 7.00 to 8.00 | > 8.00 | 7.00 to 8.00 | > 8.00 | < 6.00 | 6.00 to 7.00 | < 6.00 | 6.00 to 7.00 | < 6.00 | 6.00 to 7.00 |  |  |  |  |  |  |  |  | 
Cc1nn(C)c2c1-c1nccc(n1)Nc1cc(c(-c3ncc(CN4CCC(O)CC4)cc3F)cn1)N[C@@H](C)CCO2 |  |  |  |  |  |  |  |  |  |  | > 8.00 | > 8.00 | > 8.00 | 7.00 to 8.00 | > 8.00 | < 6.00 | 7.00 to 8.00 | 7.00 to 8.00 | > 8.00
Cn1ncc2c1OCCCNc1cc(ncc1-c1ccn(CC(F)(F)F)n1)Nc1ccnc-2n1 | 7.00 to 8.00 | > 8.00 | 7.00 to 8.00 | > 8.00 | < 6.00 | 6.00 to 7.00 | < 6.00 | 6.00 to 7.00 | < 6.00 | < 6.00 |  |  |  |  |  |  |  |  | 
COc1cc(F)cnc1-c1cnc2cc1N[C@@H](C)CCOc1c(cnn1C)-c1nccc(n1)N2 | 6.00 to 7.00 | 7.00 to 8.00 | 6.00 to 7.00 | 7.00 to 8.00 | < 6.00 | 6.00 to 7.00 | < 6.00 | < 6.00 | < 6.00 | < 6.00 |  |  |  |  |  |  |  |  | 
Cc1nn(C)c2c1-c1nccc(n1)Nc1cc(c(-c3cnc(S(C)(=O)=O)cn3)cn1)NCC[C@H](C)O2 |  |  |  |  |  |  |  |  |  |  | > 8.00 | 7.00 to 8.00 | > 8.00 | 7.00 to 8.00 | > 8.00 | < 6.00 | 7.00 to 8.00 | > 8.00 | > 8.00

The next lines start with the values.

pIC50 [1, 3] | pIC50 [1, 4] | pIC50 [2, 5] | pIC50 [2, 6] | pIC50 (EGFR LRCS (L858R/C797S); [7]) | pIC50 (EGFR LRCS (L858R/C797S); [8]) | pIC50 (EGFR WT; [9]) | pIC50 (EGFR WT; read-out: EGFR WT IC50, ATP Km) | pIC50 (EGFR D19CS (del19/C797S); [10]) | pIC50 (EGFR D19CS (del19/C797S); [11]) | pIC50 [1, 12] | pIC50 [2, 13] | pIC50 [2, 14] | pIC50 (EGFR LRCS (L858R/C797S); [15]) | pIC50 (EGFR LRCS (L858R/C797S); [16]) | pIC50 (EGFR WT; [17]) | pIC50 (EGFR WT; [18]) | pIC50 (EGFR D19CS (del19/C797S); [19]) | pIC50 (EGFR D19CS (del19/C797S); [20]) | SMILES
> 8.00 | > 8.00 | > 8.00 | > 8.00 | 6.00 to 7.00 | > 8.00 | < 6.00 | > 8.00 | > 8.00 | > 8.00 |  |  |  |  |  |  |  |  |  | Cc1nn(C)c2c1-c1nccc(n1)Nc1cc(c(-c3ncc(CN4CC(OC(F)F)C4)cc3F)cn1)N[C@@H](C)CCO2
< 6.00 | 6.00 to 7.00 | < 6.00 | 6.00 to 7.00 | < 6.00 | 6.00 to 7.00 | < 6.00 | < 6.00 | < 6.00 | < 6.00 |  |  |  |  |  |  |  |  |  | Cc1nn(C)c2c1-c1nccc(n1)Nc1cc(c(-c3ncc(S(C)(=O)=O)cc3F)cn1)N[C@@H](C)CCO2
 |  |  |  |  |  |  |  |  |  | > 8.00 | 7.00 to 8.00 | > 8.00 | 6.00 to 7.00 | > 8.00 | < 6.00 | 7.00 to 8.00 | 7.00 to 8.00 | > 8.00 | Cc1nn(C)c2c1-c1nccc(n1)Nc1cc(c(-c3ccc(OC(F)F)cn3)cn1)NCC[C@H](C)O2
> 8.00 | > 8.00 | > 8.00 | > 8.00 | 6.00 to 7.00 | 7.00 to 8.00 | < 6.00 | 6.00 to 7.00 | 6.00 to 7.00 | 7.00 to 8.00 |  |  |  |  |  |  |  |  |  | Cn1ncc2c1OCC(C)(C)CNc1cc(ncc1-c1ccn(CC(F)(F)F)n1)Nc1ccnc-2n1
7.00 to 8.00 | > 8.00 | 6.00 to 7.00 | > 8.00 | < 6.00 | 6.00 to 7.00 | < 6.00 | 6.00 to 7.00 | < 6.00 | 6.00 to 7.00 |  |  |  |  |  |  |  |  |  | C[C@H]1CCOc2c(cnn2C)-c2nccc(n2)Nc2cc(c(-c3cc(N4CC(CC(C)(F)F)C4)ccn3)cn2)N1
> 8.00 | > 8.00 | > 8.00 | > 8.00 | 6.00 to 7.00 | > 8.00 | < 6.00 | 7.00 to 8.00 | 7.00 to 8.00 | 7.00 to 8.00 |  |  |  |  |  |  |  |  |  | CC[C@H]1CCOc2c(cnn2C)-c2nccc(n2)Nc2cc(c(-c3ccn(C(F)F)n3)cn2)N1

pIC50: −log10 of the molar value. Read-outs that look alike come from different tables or passages of the source.
